System: HOSE6.3 cells
Test: Presto Blue cell viability assay in non-tumoral cells, single drugs and Paclitaxel combinations (Chou–Talalay, Bliss, HSA analysis)
Settings: HOSE6.3, 48 h, 0.25 x IC50 of each drug, alone or combined

Ivermectin
Cellular viability (%) Media: 100.990%

Reference: PMC9496819 (Cancers, 2022)
